In ChEMBL document CHEMBL1128460, “Design, synthesis, and structure-activity relationships of a new series of alpha-adrenergic agonists: spiro[(1,3-diazacyclopent-1-ene)-5,2'-(1',2',3',4'- tetrahydronaphthalene)]” (J Med Chem, 1995):

Legend:
[1] = Ratio of C20 obtained in the absence or presence of [C20 ( 0.1 mg of prazosin ) / C20 (control)]; type: functional
Procedure, shortened: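 Pithed rats pretreated with tertatolol (100 mg/kg), then 10 min later with prazosin (100 µg/kg). Cumulative iv agonist doses given another 10 min later at 20 s intervals. Arterial pressure recorded, C20 (dose giving +20 mmHg) determined. Ratio calculated as C20(prazosin)/C20(control); 3–6 determinations.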

[2] = Ratio of C20 obtained in the absence or presence of [C20 (1 mg of yohimbine.) / C20 (control)]; type: functional
Procedure, shortened: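 Pithed rat arterial pressure assay with tertatolol (100 mg/kg) pretreatment, then yohimbine (1 mg/kg) 10 min later. Cumulative iv agonist doses given at 20 s intervals after a further 10 min, C20 (+20 mmHg dose) obtained. Ratio expressed as C20(yohimbine)/C20(control); 3–6 determinations.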

Cc1ccc2c(c1)CC1(CC2)CN=CN1 (configuration not stated)
Ratio [1]: 6.1
Ratio [2]: 7.9
